This series in a line: Spectral properties of the fluorinated rhodamines (absorption, emission, quantum yield, lifetime). Format: physicochemical. To be noted: aqueous buffer at pH 7.

Substance “2,7-Difluoro-5′(6′)-methoxycarbonyl-N,N,N′,N′-tetramethyl-rhodamine [Compound 28]” had a ΦFL of 0.28 and a τFL of 1.6 ns.

The values are drawn from US8735444B2, “Fluorinated rhodamines as photostable fluorescent dyes for labelling and imaging techniques” (Max-Planck-Gesellschaft zur Foerderung der Wissenschaften …, priority 2009, dated 2014).
